Data: patent publication US8575145B2, “Triazolopyridine compounds as PIM kinase inhibitors” (Array BioPharma Inc., priority 2008, dated 2013)

The chains behind the UniProt entries cited, without tags or fusion partners.
UniProt P11309, whole entry, species assumed: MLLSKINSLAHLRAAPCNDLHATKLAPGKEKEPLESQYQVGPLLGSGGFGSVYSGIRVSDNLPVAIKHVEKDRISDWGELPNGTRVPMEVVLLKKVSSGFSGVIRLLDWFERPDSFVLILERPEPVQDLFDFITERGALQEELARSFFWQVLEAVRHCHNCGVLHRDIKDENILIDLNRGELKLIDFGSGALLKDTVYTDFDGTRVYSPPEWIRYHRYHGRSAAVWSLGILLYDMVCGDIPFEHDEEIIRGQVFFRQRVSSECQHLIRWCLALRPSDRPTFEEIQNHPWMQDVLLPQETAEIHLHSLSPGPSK

Legend:
[1] = molecular target: PIM-1 (Homo sapiens (Human), UniProt P11309); test: PIM-1 Enzyme Assay; assay type: biochemical; details: 35 μM ATP, 0.25 nM PIM-1
Procedure: The amount of radiolabeled product is then measured by liquid scintillation counting. The final buffer conditions were as follows: 20 mM K^+MOPS, pH 7.4, 10 mM MgCl2, 0.005% Tween-20, 1 mM DTT. […] Incubations were carried out for 60 min at 22° C. and quenched with 75 μL of 200 mM H3PO4, filtered through a Whatman P81 plate and washed (1×200 μL and 5×100 μL ) with 200 mM H3PO4. Liquid scintillation cocktail (50 μL ) was then added per well, and the plate was counted for 30 s/well using a TopCount NXT.
One-μL aliquots of these were then transferred to the assay mixtures above to give a final concentration of DMSO of 2%. […] For each plate, percent of control (POC) values were calculated for each well. IC50's were estimated from the POC's using a standard 4-parameter logistic model. The IC50 is defined as the concentration of inhibitor at which the POC equals 50 for the fitted curve.

[2] = molecular target: recombinant rat PIM-3 (Rattus norvegicus (Rat), UniProt O70444); test: PIM-3 Enzyme Assay; details: read-out: PIM-3 IC50; 30 μM ATP, 0.5 nM PIM-3

IC50 [1]	IC50 [2]	SMILES
0.65 nM	–	N[C@H]1CC[C@H](Oc2cccc3ccc(-c4nnc5ccccn45)nc23)CC1 [Example 17, (trans)-4-(2-([1,2,4]Triazolo[4,3-a]pyridin-3-yl)quinolin-8-yloxy)cyclohexanamine]
–	6 nM	CC(C)(C)COc1cccc2ccc(-c3nnc4ccccn34)nc12 [Example 23, 2-([1,2,4]triazolo[4,3-a]pyridin-3-yl)-8-(neopentyloxy)quinoline]
